molecular target: IDO1 (Homo sapiens, UniProt P14902); assay: IDO1 Cellular Assay in HeLa Cells Stimulated with IFNγ; assay type: cell-based; details: HeLa cells stimulated with IFNγ 100 ng/mL, about 48 hours

Amino acid sequences for entries named in this document (tags omitted).
UniProt P14902, whole entry: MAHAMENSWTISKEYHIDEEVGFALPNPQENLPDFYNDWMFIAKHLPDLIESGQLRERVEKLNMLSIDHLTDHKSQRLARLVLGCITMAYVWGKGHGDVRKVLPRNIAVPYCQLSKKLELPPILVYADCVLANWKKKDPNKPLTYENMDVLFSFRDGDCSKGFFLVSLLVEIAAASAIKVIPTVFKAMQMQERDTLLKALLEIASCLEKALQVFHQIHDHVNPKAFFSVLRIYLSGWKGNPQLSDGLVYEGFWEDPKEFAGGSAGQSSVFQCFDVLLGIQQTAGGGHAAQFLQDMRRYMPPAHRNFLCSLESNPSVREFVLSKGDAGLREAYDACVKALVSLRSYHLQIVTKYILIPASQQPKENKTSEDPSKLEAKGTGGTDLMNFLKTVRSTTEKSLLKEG

**Q.** Which EC50 does the source give for `C[C@@H]1C[C@H](Oc2ccccc2Cl)CCN1C(=O)Cn1nc(C(=O)N2CC[C@@H](O)[C@@H](F)C2)c2c1C[C@H]1C[C@@H]21` [Example 52, 1-((2R,4R)-4-(2-chlorophenoxy)-2-methylpiperidin-1-yl)-2-((3bR,4aR)-3-((3S,4R)-3-fluoro-4-hydroxypiperidine-1-carbonyl)-3b,4,4a,5-tetrahydro-1H-cyclopropa[3,4]cyclopenta[1,2-c]pyrazol-1-yl)ethanone] here?
**A.** Its EC50 is 1.7 nM.

**Q.** How did the EC50 turn out when `Cc1ccccc1OC1CCN(C(=O)Cn2nc(C(=O)N3CC[C@@H](O)[C@@H](F)C3)c3c2CCC3)CC1` [Example 40, 2-(3-((3S,4R)-3-fluoro-4-hydroxypiperidine-1-carbonyl)-5,6-dihydrocyclopenta[c]pyrazol-1(4H)-yl)-1-(4-(o-tolyloxy)piperidin-1-yl)ethanone] was run?
**A.** Its EC50 is 11 nM.

**Q.** For `Cc1ccc(F)cc1OC1CCN(C(=O)Cn2nc(C(=O)N3C[C@@H](C)O[C@@H](C)C3)c3c2CCC3)CC1` [Example 135, 2-[3-(2,6-dimethylmorpholine-4-carbonyl)-5,6-dihydrocyclopenta[c]pyrazol-1(4H)-yl]-1-[4-(5-fluoro-2-methylphenoxy)piperidin-1-yl]ethan-1-one], which EC50 is on record?
**A.** Its EC50 is 7.47 nM.

**Q.** How did the EC50 turn out when `Cc1ccccc1OC1CCN(C(=O)Cn2nc(C(=O)N3CC[C@@H](O)[C@@H](F)C3)c3c2CCCC3)CC1` [Example 36, 2-(3-((3S,4R)-3-fluoro-4-hydroxypiperidine-1-carbonyl)-4,5,6,7-tetrahydro-1H-indazol-1-yl)-1-(4-(o-tolyloxy)piperidin-1-yl)ethanone] was run?
**A.** Its EC50 is 4.78 nM.

**Q.** For `Cc1ccccc1SC1CCN(C(=O)Cn2nc(C(=O)N3CC[C@H](O)[C@H](F)C3)c3c2C[C@H]2C[C@@H]32)CC1` [Example 178, 2-((3bR,4aR)-3-((3R,4S)-3-fluoro-4-hydroxypiperidine-1-carbonyl)-3b,4,4a,5-tetrahydro-1H-cyclopropa[3,4]cyclopenta[1,2-c]pyrazol-1-yl)-1-(4-(o-tolylthio)piperidin-1-yl)ethanone], which EC50 is on record?
**A.** The EC50 was 12.5 nM.

**Q.** With `C[C@@H]1CN(C(=O)c2nn(CC(=O)N3CCCC(Oc4ccccc4Cl)C3)c3c2CCC3)C[C@H](C)O1` (stereo partly drawn) [Example 122, 1-[3-(2-chlorophenoxy)piperidin-1-yl]-2-{3-[(2R,6S)-2,6-dimethylmorpholine-4-carbonyl]-5,6-dihydrocyclopenta[c]pyrazol-1(4H)-yl}ethan-1-one] as the compound, how does the EC50 read?
**A.** Its EC50 is 323 nM.

**Q.** With `C[C@@H]1CN(C(=O)c2nn(CC(=O)N3CCC(F)(Cc4ccccc4)CC3)c3c2CCC3)C[C@H](C)O1` [Example 167, 1-(4-Benzyl-4-fluoropiperidin-1-yl)-2-(3-((2S,6R)-2,6-dimethylmorpholine-4-carbonyl)-5,6-dihydrocyclopenta[c]pyrazol-1(4H)-yl)ethan-1-one] as the compound, how does the EC50 read?
**A.** The EC50 was 278 nM.

**Q.** For `Cc1ccccc1OC1CCN(C(=O)Cn2nc(C(=O)N3C[C@@H](C)O[C@@H](C)C3)c3c2CCC3)CC1` [Example 116, 2-{3-[(2R,6S)-2,6-dimethylmorpholine-4-carbonyl]-5,6-dihydrocyclopenta[c]pyrazol-1(4H)-yl}-1-[4-(2-methylphenoxy)piperidin-1-yl]ethan-1-one], which EC50 is on record?
**A.** Its EC50 is 3.03 nM.

**Q.** For `CCOC(=O)c1nn(CC(=O)N2CCC(Oc3ccccc3C)CC2)c2c1[C@@H]1C[C@@H]1C2` [Example 37, (3bR,4aR)-ethyl 1-(2-oxo-2-(4-(o-tolyloxy)piperidin-1-yl)ethyl)-3b,4,4a,5-tetrahydro-1H-cyclopropa[3,4]cyclopenta[1,2-c]pyrazole-3-carboxylate], which EC50 is on record?
**A.** Its EC50 is 5.9 nM.

**Q.** `C[C@@H]1CN(C(=O)c2nn(CC(=O)N3CCC(Oc4ccccc4C(F)(F)F)CC3)c3c2CCC3)C[C@H](C)O1` [Example 96, 2-{3-[(2R,6S)-2,6-dimethylmorpholine-4-carbonyl]-5,6-dihydrocyclopenta[c]pyrazol-1(4H)-yl}-1-{4-[2-(trifluoromethyl)phenoxy]piperidin-1-yl}ethan-1-one] was tested. Which EC50 did it give?
**A.** Its EC50 is 4.54 nM.

**Q.** With `Cc1cccnc1OC1CC2CCC(C1)N2C(=O)Cn1nc(C(=O)N2CCC(O)CC2)c2c1CCCC2` (racemic) [Example 182, 2-(3-(4-Hydroxypiperidine-1-carbonyl)-4,5,6,7-tetrahydro-1H-indazol-1-yl)-1-(3-((3-methylpyridin-2-yl)oxy)-8-azabicyclo[3.2.1]octan-8-yl)ethan-1-one] as the compound, how does the EC50 read?
**A.** Its EC50 is 954 nM.

**Q.** `C[C@@H]1CN(C(=O)c2nn(CC(=O)N3CCC(Oc4cccc(C(F)(F)F)c4Cl)CC3)c3c2CCC3)C[C@H](C)O1` [Example 159, 1-{4-[2-chloro-3-(trifluoromethyl)phenoxy]piperidin-1-yl}-2-{3-[(2R,6S)-2,6-dimethylmorpholine-4-carbonyl]-5,6-dihydrocyclopenta[c]pyrazol-1(4H)-yl}ethan-1-one] was tested. Which EC50 did it give?
**A.** The EC50 was 138 nM.

**Q.** Which EC50 does the source give for `CCOC(=O)c1nn(CC(=O)N2CCC(Oc3ncccc3Cl)CC23CC3)c2c1CCCC2` (single isomer, unassigned) [Example 65, (S or R)-ethyl 1-(2-(7-((3-chloropyridin-2-yl)oxy)-4-azaspiro[2.5]octan-4-yl)-2-oxoethyl)-4,5,6,7-tetrahydro-1H-indazole-3-carboxylate] here?
**A.** The EC50 was 322 nM.

**Q.** With `Cc1cccc(F)c1OC1CCN(C(=O)Cn2nc(C(=O)N3C[C@@H](C)O[C@@H](C)C3)c3c2CCC3)CC1` [Example 138, 2-{3-[(2R,6S)-2,6-dimethylmorpholine-4-carbonyl]-5,6-dihydrocyclopenta[c]pyrazol-1(4H)-yl}-1-[4-(2-fluoro-6-methylphenoxy)piperidin-1-yl]ethan-1-one] as the compound, how does the EC50 read?
**A.** The EC50 was 8.86 nM.

**Q.** How did the EC50 turn out when `Cc1cc(F)ccc1OC1CCN(C(=O)Cn2nc(C(=O)N3CCO[C@H](CO)C3)c3c2CCCCC3)CC1` [Example 85, 1-[4-(4-fluoro-2-methyl-phenoxy)-1-piperidyl]-2-[3-[(2S)-2-(hydroxymethyl)morpholine-4-carbonyl]-5,6,7,8-tetrahydro-4H-cyclohepta[c]pyrazol-1-yl]ethanone] was run?
**A.** The EC50 was 35.7 nM.

**Q.** `C[C@@H]1C[C@H](Oc2ncccc2C(F)(F)F)CCN1C(=O)Cn1nc(C(=O)N2CCC(OCCO)CC2)c2c1C[C@H]1C[C@@H]21` [Example 8, 2-((3bR,4aR)-3-(4-(2-hydroxyethoxy)piperidine-1-carbonyl)-3b,4,4a,5-tetrahydro-1H-cyclopropa[3,4]cyclopenta[1,2-c]pyrazol-1-yl)-1-((2R,4R)-2-methyl-4-((3-(trifluoromethyl)pyridin-2-yl)oxy)piperidin-1-yl)ethanone] was tested. Which EC50 did it give?
**A.** The EC50 was 4.57 nM.

**Q.** Which EC50 does the source give for `C[C@@H]1CN(C(=O)c2nn(CC(=O)N3CCCC(Oc4ccccc4Cl)C3)c3c2CCC3)C[C@H](C)O1` (stereo partly drawn) [Example 126, 1-[3-(2-chlorophenoxy)piperidin-1-yl]-2-{3-[(2R,6S)-2,6-dimethylmorpholine-4-carbonyl]-5,6-dihydrocyclopenta[c]pyrazol-1(4H)-yl}ethan-1-one] here?
**A.** The EC50 was 440 nM.

**Q.** For `O=C(Cn1nc(C(=O)N2CC[C@H](O)[C@@H](F)C2)c2c1CCCC2)N1CCC(Oc2cccc(Cl)c2)CC1` [Example 42, 1-(4-(3-chlorophenoxy)piperidin-1-yl)-2-(3-((3S,4S)-3-fluoro-4-hydroxypiperidine-1-carbonyl)-4,5,6,7-tetrahydro-1H-indazol-1-yl)ethanone], which EC50 is on record?
**A.** The EC50 was 13.9 nM.

**Q.** `C[C@@H]1CN(C(=O)c2nn(CC(=O)N3CCC(Oc4cccc(Cl)c4)CC3)c3c2CCC3)C[C@H](C)O1` [Example 104, 1-[4-(3-chlorophenoxy)piperidin-1-yl]-2-{3-[(2R,6S)-2,6-dimethylmorpholine-4-carbonyl]-5,6-dihydrocyclopenta[c]pyrazol-1(4H)-yl}ethan-1-one] was tested. Which EC50 did it give?
**A.** Its EC50 is 26 nM.

**Q.** How did the EC50 turn out when `C[C@@H]1CN(C(=O)c2nn(CC(=O)N3CCC(Oc4cc(F)ccc4Cl)CC3)c3c2CCC3)C[C@H](C)O1` [Example 133, 1-[4-(2-chloro-5-fluorophenoxy)piperidin-1-yl]-2-{3-[(2R,6S)-2,6-dimethylmorpholine-4-carbonyl]-5,6-dihydrocyclopenta[c]pyrazol-1(4H)-yl}ethan-1-one] was run?
**A.** The EC50 was 5.4 nM.

**Q.** `Cc1ccc(OC2CCN(C(=O)Cn3nc(C(=O)N4C[C@@H](C)O[C@@H](C)C4)c4c3CCC4)CC2)c(Cl)c1` [Example 131, 1-[4-(2-chloro-4-methylphenoxy)piperidin-1-yl]-2-{3-[(2R,6S)-2,6-dimethylmorpholine-4-carbonyl]-5,6-dihydrocyclopenta[c]pyrazol-1(4H)-yl}ethan-1-one] was tested. Which EC50 did it give?
**A.** Its EC50 is 2.88 nM.

**Q.** Which EC50 does the source give for `Cc1cc(F)ccc1OC1CCN(C(=O)Cn2nc(C(=O)N3CCC(F)(CO)CC3)c3c2CCCC3)CC1` [Example 78, 2-[3-[4-fluoro-4-(hydroxymethyl)piperidine-1-carbonyl]-4,5,6,7-tetrahydroindazol-1-yl]-1-[4-(4-fluoro-2-methyl-phenoxy)-1-piperidyl]ethanone] here?
**A.** Its EC50 is 4.14 nM.

**Q.** How did the EC50 turn out when `Cc1ccccc1OC1CCN(C(=O)Cn2nc(C(=O)N3CCC(O)CC3)c3c2CCCCC3)CC1` [Example 32, 2-(3-(4-hydroxypiperidine-1-carbonyl)-5,6,7,8-tetrahydrocyclohepta[c]pyrazol-1(4H)-yl)-1-(4-(o-tolyloxy)piperidin-1-yl)ethanone] was run?
**A.** Its EC50 is 3.09 nM.

**Q.** `Cc1cc(F)ccc1OC1CCN(C(=O)Cn2nc(C(=O)N3CC[C@H](O)[C@H](F)C3)c3c2CCCC3)CC1` (racemic) [Example 77, 1-[4-(4-fluoro-2-methyl-phenoxy)-1-piperidyl]-2-[3-[rac-(3R,4S)-3-fluoro-4-hydroxy-piperidine-1-carbonyl]-4,5,6,7-tetrahydroindazol-1-yl]ethanone] was tested. Which EC50 did it give?
**A.** Its EC50 is 8.2 nM.

**Q.** With `Cc1ccccc1O[C@@H]1CCN(C(=O)Cn2nc(C(=O)N3CCC(OCCO)CC3)c3c2CCC3)[C@@H](C)C1` [Example 56, 2-(3-(4-(2-hydroxyethoxy)piperidine-1-carbonyl)-5,6-dihydrocyclopenta[c]pyrazol-1(4H)-yl)-1-((2S,4R)-2-methyl-4-(o-tolyloxy)piperidin-1-yl)ethanone] as the compound, how does the EC50 read?
**A.** Its EC50 is 20.2 nM.

**Q.** With `CCOC(=O)c1nn(CC(=O)N2CC[C@@H](Oc3ccccc3Cl)C[C@H]2C)c2c1CCCC2` [Example 11, ethyl 1-(2-((2R,4R)-4-(2-chlorophenoxy)-2-methylpiperidin-1-yl)-2-oxoethyl)-4,5,6,7-tetrahydro-1H-indazole-3-carboxylate] as the compound, how does the EC50 read?
**A.** The EC50 was 11.6 nM.

**Q.** `O=C(Cn1nc(C(=O)N2CCC(O)CC2)c2c1CCCC2)N1CCC(Oc2ccccc2Cl)CC1` [Example 3, 1-[4-(2-chlorophenoxy)-1-piperidyl]-2-[3-(4-hydroxypiperidine-1-carbonyl)-4,5,6,7-tetrahydroindazol-1-yl]ethanone] was tested. Which EC50 did it give?
**A.** Its EC50 is 2.01 nM.
